High-throughput results: PubChem, Broad Institute
UUG fidelity = modulators of yeast start codon fidelity, primary screen, whole organism, S. cerevisiae, single point, plate reader | AID 602363, 2012 | S. cerevisiae UUG-firefly luciferase reporter, luminescence/redox ratio | activity score, % at 18.7 µM | hit rate 0.13% among 350,000;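 active = replicate mean at a twofold rise or more, about +100% in these data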;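 also: firefly luciferase made from a UUG start codon reports start codon fidelity; reporter light over untreated wells divided by growth signal over untreated wells; some hits fall short of that in this replicate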
Cneo AK release = Cryptococcus neoformans lysis via adenylate kinase release. C. neoformans lysis, adenylate kinase release luminescence, 4 h; normalised: neutral wells 0, clomiphene wells 100. 360,000 tested, 0.2% active. lysis activity, % at 15 µM;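 active means mean lysis activity across replicates of at least 80%, whatever share of replicates individually reach that level; inactive means mean lysis activity below 80%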
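Material – log-phase Cryptococcus neoformans yeast cells · Input – 5 × 10^6 yeast cells/mL · Medium – fresh YPD growth medium · Doses – single compound concentration per well · Timing – static 4 h at 37 °C with compound, 1 h detection · Detection – adenylate kinase release luminescence · Read-out – signal increase indicating cell lysis · Control set – Clomiphene as positive lysis control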
C2C12 statin = suppressors of simvastatin-induced myotoxicity in C2C12 myotubes. ATP luminescence, 48 h; scaled: DMSO 0, geranylgeraniol control 100. rescue of ATP level, % at 7.49 µM. 330,000 tested, 0.78% active. AID 602340;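 active means mean ATP rescue above about 67%, or every replicate alone reaching that limit, limit read from the data, passing the limit was not always enough; inconclusive means no clear call, values can overlap the other calls; inactive means mean under the limit and some replicate under it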;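 further: myotubes were challenged with 10 µM simvastatin during compound exposure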
miR122 inh = miR-122 inhibition in Huh7 cells | activation (reporter increase), % at 12.5 µM | 340,000 tested, 0.3% active | Huh7 miR-122 Renilla luciferase sensor, 48 h; neutral wells = 0, positive control = 100;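 active means mean replicate activation score at least 90 and every replicate individually at or above 90; inconclusive means only one of the two criteria met; inactive means neither criterion met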;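 further: higher luciferase means less miR-122 activity so hits act as miR-122 inhibitors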
* marks the source's active call; other numbers are inactive results; ? = inconclusive; . = no result; [ ] = another dose, or the depositor's remark. Sampled rows, rich in hits. Any-hit rate of the full collection: about 1.2%.

SMILES	UUG fidelity	Cneo AK release	C2C12 statin	miR122 inh
C[C@H]1CN([C@@H](C)CO)C(=O)Cc2cc(NS(=O)(=O)c3cn(C)cn3)ccc2O[C@@H]1CN(C)Cc1ccc(Oc2ccccc2)cc1	14	110*	0	3[16.7 µM]
Cc1noc(C)c1S(=O)(=O)N(C)C[C@H]1Oc2ccc(NC(=O)NC(C)C)cc2CC(=O)N([C@@H](C)CO)C[C@@H]1C	14	-1	-2	2[16.7 µM]
Cc1ccc(S(=O)(=O)N(C)C[C@H]2OCCCC[C@H](C)Oc3ccc(NC(=O)c4ccccc4)cc3C(=O)N([C@@H](C)CO)C[C@H]2C)cc1	0	3	.	3[16.7 µM]
COc1ccc(CN(C)C[C@H]2Oc3ccc(NS(=O)(=O)c4ccc(F)cc4)cc3CC(=O)N([C@H](C)CO)C[C@H]2C)cc1	-2	2	69*	-3[16.7 µM]
COc1ccc(CN(C)C[C@H]2Oc3ccc(NS(=O)(=O)c4ccccc4)cc3CC(=O)N([C@@H](C)CO)C[C@@H]2C)cc1	0	1	66*	3[16.7 µM]
COc1ccc(S(=O)(=O)Nc2ccc3c(c2)CC(=O)N([C@H](C)CO)C[C@@H](C)[C@H](CN(C)Cc2ccc(Cl)c(Cl)c2)O3)cc1	12	57	110*	-24[16.7 µM]
COc1ccc(CN(C)C[C@H]2Oc3ccc(NS(=O)(=O)c4ccccc4)cc3CC(=O)N([C@H](C)CO)C[C@H]2C)cc1	-13	0	35	-4[16.7 µM]
COc1ccc(CN(C)C[C@H]2Oc3ccc(NS(=O)(=O)c4ccc(F)cc4)cc3CC(=O)N([C@@H](C)CO)C[C@@H]2C)cc1	5	-2	67*	-10[16.7 µM]
COc1ccc(CN(C)C[C@@H]2Oc3ccc(NS(=O)(=O)c4ccc(F)cc4)cc3CC(=O)N([C@H](C)CO)C[C@@H]2C)cc1	5	0	18	0[16.7 µM]
C[C@H]1CN([C@@H](C)CO)C(=O)c2cccc(NS(=O)(=O)c3cn(C)cn3)c2O[C@H]1CN(C)Cc1ccc(-c2ccccc2)cc1	-1	-2	-6	-3[16.7 µM]
COc1ccc(NC(=O)N(C)C[C@H]2Oc3ccc(NC(=O)Cn4cnnn4)cc3C(=O)N([C@H](C)CO)C[C@H]2C)cc1	-3	0	?	-2[16.7 µM]
CSCCC(NC(=O)c1ccco1)C(=O)NCC1CCCCC1 (centres undefined)	0	-2	13	4
CSCCC(NC(N)=O)C(=O)NCC1CCCCC1 (centres undefined)	0	2	127*	-2
NNC(=O)COc1cccc2cccnc12	-12	5	122*	-5
O=C(COc1cccc2cccnc12)Nc1nccs1	-20	-2	-2	8
C[C@@H]1CCCCO[C@H](CN(C)C(=O)c2ccccc2)[C@@H](C)CN([C@@H](C)CO)C(=O)c2cc(NC(=O)Nc3cccc4ccccc34)ccc2O1	-3	-4	.	-5[16.7 µM]
CC1(Cc2cccc(F)c2)C(=O)Nc2ccc(S(=O)(=O)NC3CCCCC3)cc21 (centres undefined)	18	1	164*	56
O=C(N[C@@H]1CC[C@H](CC(=O)N2CCc3ccccc3C2)O[C@@H]1CO)C1CCC1	-18	1	1	.
C#CNC(=O)C1(CC=C)CCNCC1	1	0	100*	-5
Cc1ccc(CC(=S)N2CCOCC2)cc1	-19	3	124*	0
CCc1ccc(CC(=S)N2CCOCC2)cc1	-20	-2	2	-6
Cc1cc(NC(=O)CCC(=O)N(CCC(C)C)C(C(=O)NC2CCCC2)c2cccnc2)no1 (centres undefined)	-10	0	105*	0
COc1cccc(S(=O)(=O)N[C@@H]2CC[C@H](CCNC(=O)Cc3ccncc3)O[C@H]2CO)c1	-5	0	2	.
O=c1nc(-c2ccccc2)c2ccccc2[nH]1	-24	116*	9	0
Clc1ccc(-c2nnc(C3CCCCC3)o2)cc1	-9	0	123*	-3
Clc1ccc(-c2nnc(C3CC3)o2)cc1	.	.	4	.
Cc1c(N=Cc2c(O)n(Cc3ccco3)c(=O)c3ccccc23)c(=O)n(-c2ccccc2)n1C	-8	-1	114*	3
COc1ccc(CNS(=O)(=O)c2ccc3c(c2)CCN3C(=O)C2CCC2)cc1	-19	0	113*	-4
C[C@H]1CN([C@@H](C)CO)C(=O)c2cc(NC(=O)Cc3ccccc3)ccc2O[C@H]1CN(C)CC1CC1	3	-3	-5	4[16.7 µM]
CCCC#Cc1cnc2c(c1)C(=O)N([C@H](C)CO)C[C@H](C)[C@H](CN(C)S(C)(=O)=O)O2	6	-1	12	20[16.7 µM]
CC(C)c1cn(CC[C@H]2CC[C@H](NC(=O)C3CCCC3)[C@H](CO)O2)nn1	3	2	10	4[16.7 µM]
O=C(OCCOc1ccc(Br)cc1)c1cnccn1	-8	5	117*	2
O=S(=O)(NCc1cccnc1)c1ccc(Cl)c2ccccc12	-19	1	-2	175*
Cc1ccc(-n2nnc(-c3nccs3)n2)cc1	-81	-4	-36	100*
COc1ccc(N2CCN(C(c3cc(OC)ccc3OC)c3nnnn3CC3CCCO3)CC2)cc1 (centres undefined)	-11	1	79*	28
CN1C(=O)c2cc(NC(=O)c3ccc(C(F)(F)F)cc3)ccc2OC[C@@H]2O[C@H](CC(=O)NC3Cc4ccccc4C3)CC[C@H]21	.	-1	-169	-37[16.7 µM]
COC(=O)c1sc(N)c(C(=O)OC)c1CSc1nnc(-c2ccccc2Cl)n1C	-14	-4	49	104*
Cc1ccc(S(=O)(=O)N/N=C2/CC(c3ccccc3)Oc3ccccc32)cc1 (centres undefined)	-18	0	88*	6
O=C(CN(c1ccc(F)cc1)S(=O)(=O)c1ccccc1)NCc1ccco1	-11	1	103*	-6
CCOc1ccc(N(CC(=O)NCc2ccco2)S(=O)(=O)c2ccc(OC)c(OC)c2)cc1	2	5	108*	7

Only UUG fidelity and C2C12 statin, for some of the entries so far:
| Structure | UUG fidelity | C2C12 statin |
| --- | --- | --- |
| CCOc1ccc(N(CC(=O)NCc2ccco2)S(=O)(=O)c2ccc(OC)c(OC)c2)cc1 | 2 | 108* |
| Clc1ccc(-c2nnc(C3CC3)o2)cc1 | . | 4 |
| C[C@H]1CN([C@@H](C)CO)C(=O)c2cc(NC(=O)Cc3ccccc3)ccc2O[C@H]1CN(C)CC1CC1 | 3 | -5 |
| COc1ccc(CN(C)C[C@H]2Oc3ccc(NS(=O)(=O)c4ccccc4)cc3CC(=O)N([C@@H](C)CO)C[C@@H]2C)cc1 | 0 | 66* |
| CCc1ccc(CC(=S)N2CCOCC2)cc1 | -20 | 2 |
| COc1ccc(CN(C)C[C@@H]2Oc3ccc(NS(=O)(=O)c4ccc(F)cc4)cc3CC(=O)N([C@H](C)CO)C[C@@H]2C)cc1 | 5 | 18 |

As a short view, some entries already given.
SMILES	UUG fidelity	Cneo AK release	C2C12 statin	miR122 inh
C[C@H]1CN([C@@H](C)CO)C(=O)Cc2cc(NS(=O)(=O)c3cn(C)cn3)ccc2O[C@@H]1CN(C)Cc1ccc(Oc2ccccc2)cc1	14	110*	0	3[16.7 µM]
Cc1noc(C)c1S(=O)(=O)N(C)C[C@H]1Oc2ccc(NC(=O)NC(C)C)cc2CC(=O)N([C@@H](C)CO)C[C@@H]1C	14	-1	-2	2[16.7 µM]

Later entries.
SMILES	UUG fidelity	Cneo AK release	C2C12 statin	miR122 inh
Cc1noc(C)c1NC(=O)N(C)C[C@H]1OCCCC[C@@H](C)Oc2ccc(NC(=O)Cc3ccccc3)cc2C(=O)N([C@H](C)CO)C[C@H]1C	12	-1	.	2[16.7 µM]
COCC#Cc1ccc2c(c1)O[C@@H](CN(C)S(=O)(=O)c1ccc(F)cc1)[C@H](C)CN([C@H](C)CO)S2(=O)=O	-11	4	-40	-2[16.7 µM]
Cc1ccc(Cl)cc1NC(=O)COC(=O)CC1CC2CCC1C2 (centres undefined)	-20	3	112*	-7
CCOc1cc(C(=O)Nc2cc(C)ccc2OC)ccc1OCC(=O)N1CCCCC1	-27	2	115*	-7
CCOc1ccccc1NC(=O)c1ccc(OCC(=O)N2CCOCC2)c(OC)c1	-11	9	2	-10
CNc1ccc(Br)cc(C(=O)/C=C/c2cc(OC)ccc2OC)c1=O	2	-2	26	-3
CCNc1ccc(Br)cc(C(=O)/C=C/c2ccc(Cl)cc2Cl)c1=O	-5	-4	82*	-4
CC(=O)C1=C(N2CCCCC2)CCC1=O	-18	1	95*	-9
CC1=C(N2CCOCC2)CCC1=O	-5	-4	2	.
